Data on 1 substance can be found in patent US20040048790A1.

The target in assay [1] is HLA-A*0206 (human). Briefly: 125I-probe peptide inhibition, purified HLA.
Assay [2] deals with HLA-A*0201 (human). Briefly: 125I-probe peptide inhibition, purified HLA.

p53.129 (10-mer) (peptide): the IC50 in assay [1] was determined as 4620 nM; in assay [2], 1320 nM.

By IC50 is commonly meant the concentration that gives 50% inhibition. A higher IC50 goes with weaker potency.
